PubChem BioAssay AID2805 (Sanford-Burnham Center for Chemical Genomics, 2010)
The list shows a part of the results, in another mix than the full data. Some salts or complexes appear as unconnected parts, following the source record. Active and inactive are the calls of the source.

The compounds below were run on intestinal alkaline phosphatase [Mus musculus] (assay: activators of mouse IAP, primary screen, biochemical, luminescence, uHTS (AID 2805)). Conditions: muIAP, CDP-Star luminescence, 30 min; at 10 µM; active compounds read high; 1 = vehicle-only enzyme signal, 0 = enzyme-free wells.
In short: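 also added = chemiluminescent substrate CDP-Star | test system = mouse IAP enzyme | signal = chemiluminescence readout | compound = DMSO-dissolved test compounds | incubation = 30 min at room temperature | benchmarks = DMSO wells, no-enzyme wells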
With `CCOC(=O)c1ccc(NP(C)(=O)Oc2ccccc2)cc1` (stereo unspecified) the activation factor was inactive: 0.971.
In the case of `Cc1ccc(NP(C)(=O)Oc2ccccc2)c(C)c1` (stereo unspecified), the activation factor is reported as inactive: 1.04.
For `COc1ccccc1OP(C)(=O)Nc1ccc(C)cc1` (stereo unspecified), the activation factor was inactive: 0.946.
`COc1ccc(OP(C)(=O)Nc2cccc(F)c2)cc1` (stereo unspecified) was tested, and the activation factor was inactive: 0.965.
With `COc1ccccc1OP(C)(=O)Nc1cc(Cl)ccc1C` (stereo unspecified) the activation factor was inactive: 0.913.
In the case of `Cc1cc(C)cc(OP(C)(N)=O)c1` (stereo unspecified), the activation factor is reported as inactive: 1.14.
With `O=[N+]([O-])c1cc([N+](=O)[O-])c(Nc2cccnc2)c([N+](=O)[O-])c1` the activation factor was inactive: 0.68.
For `Cc1cccc(C)c1OP(C)(N)=O` (stereo unspecified), the activation factor was inactive: 0.969.
With `CC(C)(C)c1ccc(OP(C)(=O)Nc2ccc(SC(F)(F)F)cc2)cc1` (stereo unspecified) the activation factor was inactive: 1.05.
In the case of `CCN(CC)CCCOC(=O)C(O)(c1ccccc1)c1ccccc1`, the activation factor is reported as inactive: 0.96.
For `CCOP(C)(=S)SCC(=O)NC(C)C(=O)O` (stereo unspecified), the activation factor was inactive: 0.974.
In the case of `O=[N+]([O-])c1cc([N+](=O)[O-])c(O)c([N+](=O)[O-])c1.c1ccc(Oc2ccncc2)cc1`, the activation factor is reported as inactive: 1.15.
For `CCOC(=O)c1ccc(NP(C)(=O)Oc2ccc(OC)cc2)cc1` (stereo unspecified), the activation factor was inactive: 0.947.
`CP(=O)(Nc1ccccn1)Oc1ccc(Cl)cc1` (stereo unspecified) was tested, and the activation factor was inactive: 1.02.
With `CP(=O)(Oc1ccccc1)OC(c1ccccc1)C(F)(F)F` (stereo unspecified) the activation factor was inactive: 0.94.
For `CP(=O)(Nc1ccc(SC(F)(F)F)cc1)Oc1ccc(Cl)cc1` (stereo unspecified), the activation factor was inactive: 0.992.
`Cc1cccc(C)c1OP(C)(=O)Nc1ccc(SC(F)(F)F)cc1` (stereo unspecified) was tested, and the activation factor was inactive: 1.16.
With `Cc1cc(C)cc(OP(C)(=O)Nc2ccc(SC(F)(F)F)cc2)c1` (stereo unspecified) the activation factor was inactive: 0.955.
For `CP(=O)(NC(=O)Nc1ccccc1)Oc1ccccc1` (stereo unspecified), the activation factor was inactive: 1.08.
For `CCc1ccc(OP(C)(=O)N2CCN(c3ccc([N+](=O)[O-])cc3)CC2)cc1` (stereo unspecified), the activation factor was inactive: 0.954.
With `CP(=S)(Nn1cnnc1)Oc1ccccc1` (stereo unspecified) the activation factor was inactive: 1.05.
In the case of `COc1ccccc1OP(C)(=O)Nc1ccccc1` (stereo unspecified), the activation factor is reported as inactive: 1.11.
In the case of `CP(=O)(Nc1ccccc1Br)Oc1ccccc1` (stereo unspecified), the activation factor is reported as inactive: 1.02.
With `CN1CCCCC1COC(=O)C1(O)c2ccccc2CCc2ccccc21` (stereo unspecified) the activation factor was inactive: 1.03.
`COc1ccccc1OP(C)(=O)Nc1c(C)cccc1C` (stereo unspecified) was tested, and the activation factor was inactive: 0.962.
In the case of `CCCOc1ccc(NP(C)(=O)Oc2ccc(Cl)cc2)cc1` (stereo unspecified), the activation factor is reported as inactive: 1.03.
For `CP(=O)(Nc1ccc(SC(F)(F)F)cc1)Oc1ccccc1` (stereo unspecified), the activation factor was inactive: 1.03.
In the case of `CCOC(=O)C(CC)C1=NC(C)(C)Cc2ccccc21.O=[N+]([O-])c1cc([N+](=O)[O-])c(O)c([N+](=O)[O-])c1` (stereo unspecified), the activation factor is reported as inactive: 0.949.
`CC1=C2N=C(C=C3N=C(C(C)=C4[N-][C@@](C)([C@@H]5N=C1[C@](C)(CCC(=O)NC[C@@H](C)OP(=O)([O-])O[C@H]1[C@@H](O)[C@@H](n6cnc7cc(C)c(C)cc76)O[C@@H]1CO)[C@H]5CC(N)=O)[C@@](C)(CC(N)=O)[C@@H]4CCC(N)=O)[C@@](C)(CC(N)=O)[C@@H]3CCC(N)=O)C(C)(C)[C@@H]2CCC(N)=O.[C-]#N.[Co+3]` was tested, and the activation factor was inactive: 0.819.
`O=[N+]([O-])c1cc([N+](=O)[O-])c(Nc2nnnn2CCO)c([N+](=O)[O-])c1` was tested, and the activation factor was inactive: 0.814.
`O=[N+]([O-])c1cc([N+](=O)[O-])c(-c2cnn(-c3ccccc3)c2)c([N+](=O)[O-])c1` was tested, and the activation factor was inactive: 0.98.
With `Cc1nc2ccc3ccccc3c2s1.O=[N+]([O-])c1cc([N+](=O)[O-])c(O)c([N+](=O)[O-])c1` the activation factor was inactive: 1.09.
With `O=[N+]([O-])c1cc([N+](=O)[O-])c(-n2nnc3ccccc32)c([N+](=O)[O-])c1` the activation factor was inactive: 1.01.
For `Cc1cc(C)cc(OP(C)(=O)Nc2ccccn2)c1` (stereo unspecified), the activation factor was inactive: 0.913.
With `CP(=O)(Nc1cccc(Br)c1)Oc1ccccc1` (stereo unspecified) the activation factor was inactive: 1.2.
`Cc1ccc(C)c(NP(C)(=O)Oc2ccccc2)c1` (stereo unspecified) was tested, and the activation factor was inactive: 0.965.
`COc1ccccc1OP(C)(=O)Nc1cccc(Br)c1` (stereo unspecified) was tested, and the activation factor was inactive: 0.952.
`Cc1cc(C)cc(OP(C)(=O)Nc2ccc(C)cc2C)c1` (stereo unspecified) was tested, and the activation factor was inactive: 1.07.
`CCOC(=O)c1ccc(NP(C)(=O)Oc2cc(C)cc(C)c2)cc1` (stereo unspecified) was tested, and the activation factor was inactive: 0.815.
In the case of `CC1=NCCc2c1[nH]c1ccccc21.O=[N+]([O-])c1cc([N+](=O)[O-])c(O)c([N+](=O)[O-])c1`, the activation factor is reported as inactive: 0.851.
For `O=C(O)c1cccc(Nc2c([N+](=O)[O-])cc([N+](=O)[O-])cc2[N+](=O)[O-])c1`, the activation factor was inactive: 0.989.
`CCN(CC)CCCOC(=O)C(O)(c1ccccc1)C1CCCCC1` (stereo unspecified) was tested, and the activation factor was inactive: 0.955.
For `O=[N+]([O-])c1cc([N+](=O)[O-])c(OC2CCCCC2O)c([N+](=O)[O-])c1` (stereo unspecified), the activation factor was inactive: 0.955.
With `CCCCCOc1ccc(NP(C)(=O)Oc2ccc(Cl)cc2Cl)cc1` (stereo unspecified) the activation factor was inactive: 0.961.
For `CP(=O)(Nc1ccccc1)Oc1ccc(F)cc1` (stereo unspecified), the activation factor was inactive: 0.965.
`COc1ccc(OP(C)(=O)Nc2ccc(SC(F)(F)F)cc2)cc1` (stereo unspecified) was tested, and the activation factor was inactive: 0.937.
`CCOC(=O)c1ccc(NP(C)(=O)Oc2ccc(F)cc2)cc1` (stereo unspecified) was tested, and the activation factor was inactive: 0.971.
For `O=C(OCCN1CCN(CCOCc2ccccc2)CC1)C(O)(c1ccccc1)c1ccccc1`, the activation factor was inactive: 0.922.
In the case of `O=C(OC1CN2CCC1CC2)c1ccc([N+](=O)[O-])cc1` (stereo unspecified), the activation factor is reported as inactive: 1.11.
With `COc1ccc2c(c1O)-c1c(O)c(OC)cc3c1[C@H](C2)[N+](C)(C)CC3.O=[N+]([O-])c1cc([N+](=O)[O-])c([O-])c([N+](=O)[O-])c1[O-]` the activation factor was inactive: 0.935.
In the case of `CC(C)c1ccc(OP(C)(=O)Nc2ccc(SC(F)(F)F)cc2)cc1` (stereo unspecified), the activation factor is reported as inactive: 1.06.
`CP(=O)(Nc1ccccc1F)Oc1ccccc1` (stereo unspecified) was tested, and the activation factor was inactive: 1.04.
In the case of `CP(=O)(Nc1ccc2c(c1)OCCO2)Oc1ccccc1` (stereo unspecified), the activation factor is reported as inactive: 0.958.
`Cc1ccccc1NP(C)(=O)Nc1ccccc1C` was tested, and the activation factor was inactive: 1.
`CP(=O)(Nc1ccc(SC(F)(F)F)cc1)Oc1ccc(F)cc1` (stereo unspecified) was tested, and the activation factor was inactive: 0.85.
For `CCOP(C)(=S)SCC(=O)NC(C)(CC)C(=O)O` (stereo unspecified), the activation factor was inactive: 0.972.
